# Binding of CDR-mutated scFvs to a peptide of the spike HR2 region

All variants were tested on one target, the spike HR2 peptide PDVDLGDISGINAS (SARS-CoV-2).

Ab-95 is the parent antibody, in scFv form: VH, then a 15-residue (Gly4Ser)3 linker, then VL. The heavy chain is unchanged in all variants.
VH: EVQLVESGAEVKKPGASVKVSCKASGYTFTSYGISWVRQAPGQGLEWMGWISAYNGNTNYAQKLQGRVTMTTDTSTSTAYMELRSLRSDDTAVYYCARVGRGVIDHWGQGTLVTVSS
VL: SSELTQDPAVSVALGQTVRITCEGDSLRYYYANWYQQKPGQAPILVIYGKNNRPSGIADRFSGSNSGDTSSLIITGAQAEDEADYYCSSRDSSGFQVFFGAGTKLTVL

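Variants in AAYL52 differ from the parent at up to three CDR positions; double and triple changes were sampled at random. Affinity was read by AlphaSeq, a pooled yeast mating assay with surface-displayed partners. Mating (16 h, 30 °C) was followed by selection of diploids and sequencing of their barcodes. Read counts were normalised to the haploid input and turned into Kd by a linear fit to BCL2-family pairs of known affinity, for each replicate. There are three technical replicates.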

Each variant is given by its three light chain CDRs, as the data file delimits them; those of the parent are EGDSLRYYYAN, GKNNRPS, SSRDSSGFQVF. Scale: log10 of Kd in nM, estimated from mating counts; low values are strong binders. An entry "nd" has no value in the source: the pair was not observed among the diploids in that replicate. This suggests poor binding but is not conclusive. Three control strains display no target. For library AAYL52, 28% of the pairings with them gave a signal, with a median of 3.91 and one signal in twenty below 2.90, so weak values seen in few replicates may be background. Also given: how often the same scFv was detected with the empty control strains, with their mean in brackets. In this assay the parent's reference entry averaged 2.31; its copy inside this library read 2.25.

{"CDR-L1": "EGDSLRYYYAN", "CDR-L2": "GPNNRPS", "CDR-L3": "SSRMSSGFQVV", "log10 Kd, replicates": "2.83 / 2.50 / 2.39", "empty controls": "7/9 (3.87)"}
{"CDR-L1": "VEDSLRYYIAN", "CDR-L2": "GKNNRPS", "CDR-L3": "SSRDSSGFQVF", "log10 Kd, replicates": "3.86 / 2.64 / nd", "empty controls": "3/9 (3.47)"}
{"CDR-L1": "EGDILRYYYAN", "CDR-L2": "HKNIRPS", "CDR-L3": "SSRDSSGFQVF", "log10 Kd, replicates": "4.58 / nd / nd", "empty controls": "3/9 (4.34)"}
{"CDR-L1": "EGDSLRYYHAN", "CDR-L2": "GKNNRPF", "CDR-L3": "SSRDSSGFQVF", "log10 Kd, replicates": "1.75 / 1.70 / 1.33", "empty controls": "2/9 (3.94)"}
{"CDR-L1": "EGDQLRYYTAN", "CDR-L2": "GKNNRPS", "CDR-L3": "SSRRSSGFQVF", "log10 Kd, replicates": "nd / 4.69 / nd", "empty controls": "2/9 (3.37)"}
{"CDR-L1": "EGPSLRYYYAN", "CDR-L2": "GDNNKPS", "CDR-L3": "SSRDSSGFQVF", "log10 Kd, replicates": "2.33 / 2.08 / 1.77", "empty controls": "3/9 (4.02)"}
{"CDR-L1": "EGDSLRYYYAN", "CDR-L2": "GRNNRYS", "CDR-L3": "STRDSSGFQVF", "log10 Kd, replicates": "3.09 / 2.33 / nd", "empty controls": "0/9"}
{"CDR-L1": "IGDSLRYYYAN", "CDR-L2": "GDNNRPS", "CDR-L3": "SSRDSDGFQVF", "log10 Kd, replicates": "2.64 / 2.70 / 2.12", "empty controls": "4/9 (4.25)"}
{"CDR-L1": "EGDSLRYYYAN", "CDR-L2": "GKINRPS", "CDR-L3": "SSRDSAYFQVF", "log10 Kd, replicates": "nd / nd / nd", "empty controls": "2/9 (4.18)"}
{"CDR-L1": "EGDSGRYYYAK", "CDR-L2": "GKNNRPW", "CDR-L3": "SSRDSSGFQVF", "log10 Kd, replicates": "5.87 / 3.37 / nd", "empty controls": "1/9 (3.74)"}
{"CDR-L1": "EGDSLRYYTAN", "CDR-L2": "TKNNRPS", "CDR-L3": "SSRDSSGFLVF", "log10 Kd, replicates": "nd / nd / 3.25", "empty controls": "3/9 (3.50)"}
{"CDR-L1": "EDLSLRYYYAI", "CDR-L2": "GKNNRPS", "CDR-L3": "SSRDSSGFQVF", "log10 Kd, replicates": "4.46 / nd / nd", "empty controls": "2/9 (4.33)"}
{"CDR-L1": "EGDSLRYYYCN", "CDR-L2": "GKNARPS", "CDR-L3": "SSRDSSGFQVF", "log10 Kd, replicates": "2.55 / 2.96 / 2.28", "empty controls": "0/9"}
{"CDR-L1": "EGDIQRYYYAN", "CDR-L2": "GKNNRPS", "CDR-L3": "QSRDSSGFQVF", "log10 Kd, replicates": "4.09 / 4.36 / 3.81", "empty controls": "1/9 (3.08)"}
{"CDR-L1": "GGDSHRYYYAN", "CDR-L2": "GKNNRPS", "CDR-L3": "SSRDSSGFQEF", "log10 Kd, replicates": "3.23 / 3.94 / 3.97", "empty controls": "3/9 (4.15)"}
{"CDR-L1": "EGDSLRYYYAN", "CDR-L2": "GKNNLMS", "CDR-L3": "SSRDSSGFQVF", "log10 Kd, replicates": "3.18 / 2.52 / 3.12", "empty controls": "4/9 (3.30)"}
{"CDR-L1": "EGVSLRDYYAN", "CDR-L2": "GKNNGPS", "CDR-L3": "SSRDSSGFQVF", "log10 Kd, replicates": "4.42 / 2.72 / 4.30", "empty controls": "4/9 (4.78)"}
{"CDR-L1": "EGDSLRYYDAN", "CDR-L2": "GKNNRPS", "CDR-L3": "YSRDSSGFQMF", "log10 Kd, replicates": "nd / 4.99 / nd", "empty controls": "2/9 (4.30)"}
{"CDR-L1": "ELPSDRYYYAN", "CDR-L2": "GKNNRPS", "CDR-L3": "SSRDSSGFQVF", "log10 Kd, replicates": "2.11 / 2.12 / 2.91", "empty controls": "4/9 (3.85)"}
{"CDR-L1": "EGDSVRYYYAN", "CDR-L2": "GKVNRKS", "CDR-L3": "SSRDSSGFQVF", "log10 Kd, replicates": "3.44 / 3.14 / 4.26", "empty controls": "2/9 (3.48)"}
{"CDR-L1": "EGDSLRYYYAN", "CDR-L2": "GKNNRAS", "CDR-L3": "SSRDSSGFIDF", "log10 Kd, replicates": "4.56 / 3.12 / 3.97", "empty controls": "4/9 (4.30)"}
{"CDR-L1": "EYDSLRYYYAS", "CDR-L2": "GKNNRPS", "CDR-L3": "SSRDSSGFQNF", "log10 Kd, replicates": "4.00 / nd / 3.81", "empty controls": "2/9 (3.99)"}
{"CDR-L1": "EGDELRYYYAN", "CDR-L2": "GWNNRPS", "CDR-L3": "SSRDSSGFQVF", "log10 Kd, replicates": "3.61 / 3.40 / 4.10", "empty controls": "3/9 (3.70)"}
{"CDR-L1": "EGDSLRYYYAD", "CDR-L2": "GKNNRPS", "CDR-L3": "QSRDSSGFQAF", "log10 Kd, replicates": "4.23 / 5.25 / nd", "empty controls": "2/9 (3.10)"}
{"CDR-L1": "HGDSLRVYYAN", "CDR-L2": "GKNNRPS", "CDR-L3": "SSRDRSGFQVF", "log10 Kd, replicates": "2.42 / 2.60 / 2.10", "empty controls": "3/9 (3.83)"}
{"CDR-L1": "EGDNLRYYYAN", "CDR-L2": "GWNNRPS", "CDR-L3": "SSRDSFGFQVF", "log10 Kd, replicates": "3.01 / 3.32 / 2.23", "empty controls": "5/9 (4.44)"}
{"CDR-L1": "EGDSLRYYYAN", "CDR-L2": "GKNNRPY", "CDR-L3": "SSRDESGFQVW", "log10 Kd, replicates": "2.28 / 2.00 / 2.20", "empty controls": "0/9"}
{"CDR-L1": "EGDSGRCYYAN", "CDR-L2": "GKNNRPS", "CDR-L3": "SSRDKSGFQVF", "log10 Kd, replicates": "1.74 / 1.96 / 1.29", "empty controls": "3/9 (3.77)"}
{"CDR-L1": "EGDSLRTYYRN", "CDR-L2": "GKNNRPS", "CDR-L3": "SSRDISGFQVF", "log10 Kd, replicates": "3.37 / nd / nd", "empty controls": "2/9 (4.08)"}
{"CDR-L1": "EGMFLTYYYAN", "CDR-L2": "GKNNRPS", "CDR-L3": "SSRDSSGFQVF", "log10 Kd, replicates": "3.45 / 5.99 / 3.92", "empty controls": "4/9 (4.39)"}

The 2 strongest on average among those seen in every replicate, once more:

{"CDR-L1": "EGDSLRYYHAN", "CDR-L2": "GKNNRPF", "CDR-L3": "SSRDSSGFQVF", "log10 Kd, replicates": "1.75 / 1.70 / 1.33", "empty controls": "2/9 (3.94)"}
{"CDR-L1": "EGDSGRCYYAN", "CDR-L2": "GKNNRPS", "CDR-L3": "SSRDKSGFQVF", "log10 Kd, replicates": "1.74 / 1.96 / 1.29", "empty controls": "3/9 (3.77)"}

Reference: Engelhart et al. 2022, doi:10.1038/s41597-022-01779-4. File: FLAb, binding data.